Experimental findings from article PMC2841013 (Biochemistry, 2010) are described below.

Amino acid sequences for entries named in this document (tags omitted). Residues count along the entry.
UniProt P05412, 252-315: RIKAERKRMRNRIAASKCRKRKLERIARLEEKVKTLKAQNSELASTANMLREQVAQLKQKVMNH

In this data set the target is JUN bZIP domain (human, UniProt P05412 252-315). In words: circular dichroism. (In general: Circular dichroism is the unequal absorption of left and right circularly polarised light.)

B1: MEQ bZIP domain (domain or fragment, Marek's disease virus, UniProt Q9DGW5 57-120, looked up)
chain: KQKLERRRKRNRDAARRRRRKQTDYVDKLHEACEELQRANEHLRKEIRDLRTECTSLRVQLACH
As for B1, the “Tm of the complex” value was 41.3 °C.
